# Test results taken from ChEMBL document CHEMBL1146771, “Identification of purine inhibitors of phosphodiesterase 7 (PDE7)” (Bioorg Med Chem Lett, 2004).
# Key:
# [1] = Inhibitory concentration ratio of PDE3 to that of PDE7
# [2] = Inhibitory concentration ratio of PDE2 to that of PDE7
# [3] = Inhibitory concentration ratio of PDE4 to that of PDE7
# [4] = Inhibitory concentration ratio of PDE1 to that of PDE7
# [5] = Inhibitory concentration ratio of PDE5 to that of PDE7
compound,measurement,setting,value
CCOC(=O)c1sc(Nc2nc(NCc3ccc(S(N)(=O)=O)cc3)c3c(ncn3CC)n2)nc1C,Ratio,[1],270
same,Ratio,[2],86
same,Ratio,[3],50
same,Ratio,[4],86
same,Ratio,[5],1
